These results are taken from patent US4584272A.

Common to all, as to test: purified protein, by the assay type
What all share (details): pH 7.2

Series [1] concerns Nc1ncnc2c1ncn2[C@@H]1O[C@H](COP(=O)(O)OP(=O)(O)OP(=O)(O)O)[C@@H](O)[C@H]1O.
Series [2] deals with Nc1ncnc2c1ncn2[C@@H]1O[C@H](COP(=O)(O)O)[C@@H](O)[C@H]1O.
Series [3] concerns Nc1ncnc2c1ncn2[C@@H]1O[C@H](COP(=O)(O)OP(=O)(O)O)[C@@H](O)[C@H]1O.

As a reminder, the Km is the substrate concentration at which the rate is half of its maximum. For “heat-resistant adenylate kinase of the invention, from a bacterium of the genus Bacillus (Bacillus stearothermophilus) (Geobacillus stearothermophilus)”, the Km in series [1] is 40 µM; in series [2] it was 17 µM; in series [3], 50 µM.
